# Antibody variant affinities, Ab-14 light chain, assay 1

Reference: Engelhart et al. 2022, doi:10.1038/s41597-022-01779-4. File: FLAb, binding data.

The target is the same throughout: PDVDLGDISGINAS, from the HR2 region of SARS-CoV-2 spike.

The variants keep the heavy chain, the linker and the frameworks of Ab-14 (scFv order VH, a (GGGGS)3 linker, VL).
VH: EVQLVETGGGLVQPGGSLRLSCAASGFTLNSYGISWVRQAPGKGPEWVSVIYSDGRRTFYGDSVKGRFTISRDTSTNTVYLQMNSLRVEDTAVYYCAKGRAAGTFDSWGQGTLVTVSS
VL: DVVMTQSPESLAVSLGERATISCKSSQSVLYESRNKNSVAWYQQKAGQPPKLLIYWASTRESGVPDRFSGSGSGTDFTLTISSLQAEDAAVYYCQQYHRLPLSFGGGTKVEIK

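Phage display of a naive human antibody library on the peptide gave the parent. Library AAYL50 holds single substitutions and randomly drawn double and triple substitutions in the CDRs. AlphaSeq pools MATa yeast showing the antibodies with MATalpha yeast showing the peptide. Binding brings cells together so that they mate, and sequencing counts the barcode pairs among the diploids. Each replicate has its own calibration line, from reference interactions of the BCL2 family. Each pool was mated in three replicate cultures.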

The parent's light chain CDRs are KSSQSVLYESRNKNSVA, WASTRES, QQYHRLPLS; each variant's own CDRs replace them letter for letter.
Values are log10 of the apparent Kd in nM; lower means stronger binding.
A pair that was not seen in that replicate is written "n.d."; this usually means weak binding, but a binder can also be missed.
Parent in this assay: reference entry 0.65, copy in this library 1.68.
As a blank, each scFv also met three strains without target: over library AAYL50, 18% of these pairings were detected, typically at 4.19 and seldom below 2.99. The control count says in how many pairings with the empty strains this scFv gave a signal, with their mean in brackets.

{"CDR-L1": "KSSQSVLYESRNKNSVA", "CDR-L2": "WACTAES", "CDR-L3": "QQYHRLPLK", "log10 Kd (nM) by replicate": "n.d. 3.34 n.d.", "empty controls": "1/9 (3.33)"}
{"CDR-L1": "KSSNSVLYESRNKNSVA", "CDR-L2": "WASSRES", "CDR-L3": "QQYHRLPLS", "log10 Kd (nM) by replicate": "2.18 1.89 2.20", "empty controls": "0/9"}
{"CDR-L1": "KSSGSVLYESRNKNSVA", "CDR-L2": "WASTRES", "CDR-L3": "QQFHRLPHS", "log10 Kd (nM) by replicate": "n.d. n.d. 3.63", "empty controls": "2/9 (4.20)"}
{"CDR-L1": "KSSQSVLYCSRKKNSVA", "CDR-L2": "WASTRES", "CDR-L3": "QQYHRKPLS", "log10 Kd (nM) by replicate": "5.77 n.d. n.d.", "empty controls": "4/9 (3.96)"}
{"CDR-L1": "KSHQSVLYESRNKMSVA", "CDR-L2": "WASTAES", "CDR-L3": "QQYHRLPLS", "log10 Kd (nM) by replicate": "n.d. 4.70 5.15", "empty controls": "5/9 (4.09)"}
{"CDR-L1": "KSSQSVLYESRNKNSVA", "CDR-L2": "MASTRES", "CDR-L3": "QLYHRLCLS", "log10 Kd (nM) by replicate": "1.02 1.25 0.99", "empty controls": "1/9 (3.03)"}
{"CDR-L1": "KSSQRVLYESRNKRSVA", "CDR-L2": "WASTRES", "CDR-L3": "QQYARLPLS", "log10 Kd (nM) by replicate": "1.55 1.50 1.97", "empty controls": "2/9 (4.19)"}
{"CDR-L1": "SSSQSVPYESRNKNSVA", "CDR-L2": "WASTRES", "CDR-L3": "QQYHRLPLK", "log10 Kd (nM) by replicate": "2.09 2.82 2.61", "empty controls": "0/9"}
{"CDR-L1": "KSSQDVLYESRNKNSVA", "CDR-L2": "WASTRES", "CDR-L3": "QQYHRLPLS", "log10 Kd (nM) by replicate": "0.71 0.94 1.08", "empty controls": "2/9 (4.65)"}
{"CDR-L1": "KSAQYVLAESRNKNSVA", "CDR-L2": "WASTRES", "CDR-L3": "QQYHRLPLS", "log10 Kd (nM) by replicate": "n.d. n.d. n.d.", "empty controls": "0/9"}
{"CDR-L1": "KSSQSVLYESRNKNSGA", "CDR-L2": "TASTRES", "CDR-L3": "QQYWRLPLS", "log10 Kd (nM) by replicate": "n.d. 4.73 5.07", "empty controls": "3/9 (4.15)"}
{"CDR-L1": "KSSQSVLYELRNKNSVA", "CDR-L2": "WASTRES", "CDR-L3": "DQYGRLPLS", "log10 Kd (nM) by replicate": "n.d. n.d. n.d.", "empty controls": "1/9 (3.97)"}
{"CDR-L1": "KSSQSVLYESCNKNSVA", "CDR-L2": "WASYRES", "CDR-L3": "QQYHRLPGS", "log10 Kd (nM) by replicate": "n.d. n.d. 4.98", "empty controls": "0/9"}
{"CDR-L1": "KSSQSVLYESQNKNSVA", "CDR-L2": "WACTRES", "CDR-L3": "QQYHDLPLS", "log10 Kd (nM) by replicate": "n.d. n.d. n.d.", "empty controls": "1/9 (1.76)"}
{"CDR-L1": "KSSQSVLYESRNKNSVA", "CDR-L2": "WCSTRES", "CDR-L3": "QCYHRLPLS", "log10 Kd (nM) by replicate": "n.d. 3.70 n.d.", "empty controls": "4/9 (4.51)"}
{"CDR-L1": "KSYQSVLYESRLQNSVA", "CDR-L2": "WASTRES", "CDR-L3": "QQYHRLPLS", "log10 Kd (nM) by replicate": "1.47 1.54 1.88", "empty controls": "5/9 (4.61)"}
{"CDR-L1": "KSSQSVLGEVRNKNSVA", "CDR-L2": "WASTRES", "CDR-L3": "QQYMRLPLS", "log10 Kd (nM) by replicate": "0.26 0.52 0.37", "empty controls": "0/9"}
{"CDR-L1": "KSSQSVYYESRNKNSVA", "CDR-L2": "WASTRES", "CDR-L3": "QEYHRLPLS", "log10 Kd (nM) by replicate": "0.80 1.17 1.05", "empty controls": "0/9"}
{"CDR-L1": "KSSGSVIYESRNKGSVA", "CDR-L2": "WASTRES", "CDR-L3": "QQYHRLPLS", "log10 Kd (nM) by replicate": "3.54 n.d. n.d.", "empty controls": "0/9"}
{"CDR-L1": "KSSQSVLYESRAKNSVA", "CDR-L2": "AASTRES", "CDR-L3": "QIYHRLPLS", "log10 Kd (nM) by replicate": "0.78 1.01 0.92", "empty controls": "1/9 (3.08)"}
{"CDR-L1": "KSSQSVLYESRMKPSVA", "CDR-L2": "WASTRES", "CDR-L3": "QRYHRLPLS", "log10 Kd (nM) by replicate": "5.11 5.63 4.34", "empty controls": "4/9 (4.51)"}

Again, the first 3 entries without any signal:

| CDR-L1 | CDR-L2 | CDR-L3 | log10 Kd (nM) by replicate | empty controls |
|---|---|---|---|---|
| KSAQYVLAESRNKNSVA | WASTRES | QQYHRLPLS | n.d. n.d. n.d. | 0/9 |
| KSSQSVLYELRNKNSVA | WASTRES | DQYGRLPLS | n.d. n.d. n.d. | 1/9 (3.97) |
| KSSQSVLYESQNKNSVA | WACTRES | QQYHDLPLS | n.d. n.d. n.d. | 1/9 (1.76) |